{"sequences": {"note": "Protein sequences, listed by entry. Tags and fused reporters are not part of them.", "UniProt P32305, whole entry": "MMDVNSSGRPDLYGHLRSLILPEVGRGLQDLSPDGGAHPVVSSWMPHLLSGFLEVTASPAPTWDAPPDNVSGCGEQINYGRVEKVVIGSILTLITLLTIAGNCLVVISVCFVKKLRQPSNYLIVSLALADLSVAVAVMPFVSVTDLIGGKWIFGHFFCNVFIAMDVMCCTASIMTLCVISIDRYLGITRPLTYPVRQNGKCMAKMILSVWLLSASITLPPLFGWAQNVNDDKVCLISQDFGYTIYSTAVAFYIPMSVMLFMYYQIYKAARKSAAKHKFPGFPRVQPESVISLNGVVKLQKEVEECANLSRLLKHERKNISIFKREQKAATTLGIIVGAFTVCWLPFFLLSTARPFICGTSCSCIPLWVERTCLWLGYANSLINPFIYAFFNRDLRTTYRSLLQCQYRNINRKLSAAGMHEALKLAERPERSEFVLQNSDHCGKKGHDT"}, "source": "patent US6432655B1", "about": "“Method of obtaining compositions” (Synaptic Pharmaceutical Corporation, priority 1992, dated 2002)", "target": "T1, 5-HT4B receptor (Rattus norvegicus, UniProt P32305)", "T1 construct": "from tissue; host or cells: rat brain cryostat sections (20 µm)", "assay": "[3H]5-CT receptor autoradiography on rat brain sections", "format": "binding", "details": "5 μM methiothepin"}
{"smiles": "CSc1ccc2c(c1)C(N1CCN(C)CC1)Cc1ccccc1S2", "note": "(stereo not shown) [Methiothepin]", "values": [{"measurement": "effect on [3H]5-CT binding remaining after the masks", "value": "abolished"}]}
